# Laboratory results as given in US20230302140A1, “CONJUGATE OF A SINGLE DOMAIN ANTIBODY, A SAPONIN AND AN EFFECTOR MOLECULE, PHARMACEUTICAL COMPOSITION COMPRISING THE SAME, THERAPEUTIC USE OF SAID PHARMACEUTICAL COMPOSITION” (SAPREME TECHNOLOGIES B.V., priority 2020, published 2023).
# “Also recorded” adds a separate entry of the source.
# Columns and labels:
# [1] = test system: HSP27 mRNA in A2058 cells (EGFR-); test: HSP27 gene silencing in cancer cells; type: cell-based, human
# [2] = test system: A431 cells; test: Cell killing (MTS cell viability) assay; type: cell-based, human
# [3] = test system: SK-BR-3 cells; test: Cell killing (MTS cell viability) assay; type: cell-based, human
# [4] = test system: A2058 cells; test: Cell killing (MTS cell viability) assay; type: cell-based, human
# [5] = test system: MDA-MB-468 cells; test: Cell killing (MTS cell viability) assay; type: cell-based, human
# [6] = monkeys; DM1 conjugated to trastuzumab versus unconjugated; cited from earlier work
# [7] = test system: HeLa cells; test: Cell killing (MTS cell viability) assay; type: cell-based, human; details: +50 pM trastuzumab-saporin (fixed); Ex.9/Table A6: calculated on concentration SO1861
# [8] = test system: HSP27 mRNA in A431 tumors; test: A431 xenograph mouse tumor model, HSP27 gene expression in tumors; type: in vivo; details: 1 dosing 30 mg/kg, tumors collected 72 h after first dosing
# [9] = test system: A431 tumor; test: A431 xenograph mouse tumor model, tumor volume; type: in vivo; details: for outcome (death/euthanasia or survival) / tumor size (volume): Balb/c nude mice, sub-optimal ADC dose; for outcome (death/euthanasia or survival): A431 xenograft; for tumor size (volume): start at 170-180 mm^3
# [10] = +50 pM bivalentVHH-EGFR-dianthin (fixed)
# [11] = +50 pM trastuzumab-saporin (fixed), Ex.8-9/Table A6: calculated on concentration SO1861
substance,measurement,setting,value
"Cetuximab-(Cys-L-SO1861)^3,8(Lys-L-HSP27BNA)^3,8: cetuximab with labile SO1861 and labile HSP27BNA oligonucleotide",IC50,[1],> 0.1 µM
"Cetuximab-SO1861 (DAR4): cetuximab conjugated to SO1861-EMCH, DAR4",IC50,[2]; [10],0.004 µM
same,IC50,[3]; [10],0.2 µM
same,IC50,[4]; [10],0.4 µM
same,IC50,[5]; [10],0.0005 µM
T-DM1: Trastuzumab-emtansine carrying ~3.5 DM1 toxin molecules per antibody,enhancement of the tolerable dose of DM1,[6],at least two-fold
"cetuximab-(Cys-L-SO1861)^3,7: SO1861-EMCH conjugated via cysteine residues to cetuximab, DAR 3,7",IC50,[2]; [11],0.003 µM
same,IC50 cell killing,[2]; titrated alone,could not induce any cell killing activity
same,IC50,[7],0.4 µM
same,IC50,"[4]; +50 pM trastuzumab-saporin (fixed), Ex.9/Table A6: calculated on concentration SO1861",> 0.4 µM
"cetuximab-(Cys-L-SO1861)^3,9(Lys-L-HSP27BNA)^1,8: cetuximab with SO1861-EMCH (DAR 3,9) and antisense HSP27BNA (DAR 1,8)",reduction in HSP27 mRNA expression in the tumors compared to single dosing of the mono therapies,[8],40%
same,reduction of HSP27 gene expression compared to vehicle control tumors,[8],25%
"cetuximab-Cys-(SO1861-L-trifunctional linker-L-HSP27BNA)^3,7: SO1861-L-trifunctional linker-L-HSP27BNA conjugated to cysteine residues of cetuximab",reduction in HSP27 mRNA expression in the tumors compared to single dosing of the mono therapies,[8],40%
same,reduction of HSP27 gene expression compared to vehicle control tumors,[8],25%
same,IC50,[1],0.1 µM
"cetuximab-SO1861: cetuximab conjugated to saponin SO1861 via cleavable hydrazone linker, DAR 3.7",IC50,"[2]; +10 pM EGF-dianthin (fixed), calculated on concentration SO1861",0.008 µM
same,IC50,"[2]; +10 pM cetuximab-saporin (fixed), calculated on concentration SO1861",0.005 µM
same,IC50,[2]; [11],0.012 µM
same,IC50,"[5]; +10 pM EGF-dianthin (fixed), Table A6: calculated on concentration SO1861",0.006 µM
same,IC50,"[5]; +10 pM cetuximab-saporin (fixed), Table A6: calculated on concentration SO1861",0.003 µM
same,IC50,"[5]; +50 pM trastuzumab-saporin (fixed), Table A6: calculated on concentration SO1861",0.018 µM
same,outcome (death/euthanasia or survival),[9],death/euthanasia
same,tumor size (volume),[9],2000 mm^3
cetuximab: monoclonal antibody recognizing and binding human EGFR [reference compound],IC50 cell killing,[2]; [11],could not induce any cell killing activity
same,IC50 cell killing,[2]; titrated alone,could not induce any cell killing activity
same,IC50,[4]; titrated alone,> 0.003 µM
same,tumor volume versus controls,"[9]; 25 mg/kg cetuximab-(Cys-L-SO1861)^4 i.p. + 0.03 mg/kg toxin conjugate i.v., day 9, 14, then weekly, cetuximab as positive control","only tumor growth inhibition, but no regression"
same,outcome (death/euthanasia or survival),[9],death/euthanasia
same,tumor size (volume),[9],"> 170 mm^3, but < 2000 mm^3"
"trastuzumab-(Cys-L-SO1861)^4: SO1861-EMCH conjugated via cysteine residues to trastuzumab, DAR 4",IC50 cell killing,[3]; titrated alone,could not induce any cell killing activity
same,IC50,"[5]; +1.5 pM EGF-dianthin (fixed), Table A6: calculated on concentration SO1861",> 1 µM
trastuzumab-(L-SO1861)^3′^8,IC50 cell killing,[3]; titrated alone,not observed
"trastuzumab-SO1861 (DAR4): trastuzumab conjugated to SO1861-EMCH, DAR4",IC50,[2]; [10],0.4 µM
same,IC50,[4]; [10],0.4 µM
same,IC50,[5]; [10],0.4 µM
trastuzumab: monoclonal antibody recognizing and binding human HER2,IC50 cell killing,"[3]; +1.5 pM EGF-dianthin (fixed), Ex.9/Table A6: calculated on concentration SO1861",could not induce any cell killing activity
same,IC50 cell killing,[3]; +5 pM cetuximab-saporin (fixed),could not induce any cell killing activity
same,IC50 cell killing,[3]; titrated alone,not observed; also recorded: could not induce any cell killing activity
